Measured values taken from US9718808B2, “Inhibitors of the renal outer medullary potassium channel” (Merck Sharp & Dohme Corp., priority 2014, dated 2017).
pIC50: −log10 of the molar value.

By UniProt entry, the sequences of proteins in these tests, tags left out. Where a name states a change or a piece, a line headed by the entry shows the natural chain unless it says otherwise.
UniProt P48048: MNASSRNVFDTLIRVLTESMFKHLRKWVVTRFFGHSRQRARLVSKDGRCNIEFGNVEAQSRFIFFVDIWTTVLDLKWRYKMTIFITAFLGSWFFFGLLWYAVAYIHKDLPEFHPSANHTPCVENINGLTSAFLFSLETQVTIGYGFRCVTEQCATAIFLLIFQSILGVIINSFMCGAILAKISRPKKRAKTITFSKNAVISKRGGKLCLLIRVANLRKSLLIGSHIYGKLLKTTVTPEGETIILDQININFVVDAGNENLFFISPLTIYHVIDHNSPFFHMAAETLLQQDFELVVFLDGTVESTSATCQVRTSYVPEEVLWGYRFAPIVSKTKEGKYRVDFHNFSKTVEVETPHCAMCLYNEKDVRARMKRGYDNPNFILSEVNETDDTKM

Biological target: ROMK (Kir1.1) channel (Homo sapiens (Human), UniProt P48048)
Assay: Thallium Flux Assay
Assay type: cell-based
Protocol: A Thallium Flux Assay was performed on each of the final product compounds of the Examples. This assay has been described previously; see, e.g., PCT Published Application WO 2013/062900.

With “(5R,8r)-2-(4-methyl-5-oxo-2,5-dihydrofuran-3-yl)-8-(((R)-1-(4-methyl-6-(1H-tetrazol-1-yl)pyridazin-3-yl)ethyl)amino)-2-azaspiro[4.5]decan-1-one [Example 46]” as the substance, how does the pIC50 read?
Its pIC50 is 6.74.
